Results reported in ChEMBL document CHEMBL3632459, “Synthesis and evaluation of aporphine analogs containing C1 allyl isosteres at the h5-HT(2A) receptor” (Bioorg Med Chem Lett, 2015).

The chains behind the UniProt entries cited, without tags or fusion partners.
UniProt P28223, whole entry: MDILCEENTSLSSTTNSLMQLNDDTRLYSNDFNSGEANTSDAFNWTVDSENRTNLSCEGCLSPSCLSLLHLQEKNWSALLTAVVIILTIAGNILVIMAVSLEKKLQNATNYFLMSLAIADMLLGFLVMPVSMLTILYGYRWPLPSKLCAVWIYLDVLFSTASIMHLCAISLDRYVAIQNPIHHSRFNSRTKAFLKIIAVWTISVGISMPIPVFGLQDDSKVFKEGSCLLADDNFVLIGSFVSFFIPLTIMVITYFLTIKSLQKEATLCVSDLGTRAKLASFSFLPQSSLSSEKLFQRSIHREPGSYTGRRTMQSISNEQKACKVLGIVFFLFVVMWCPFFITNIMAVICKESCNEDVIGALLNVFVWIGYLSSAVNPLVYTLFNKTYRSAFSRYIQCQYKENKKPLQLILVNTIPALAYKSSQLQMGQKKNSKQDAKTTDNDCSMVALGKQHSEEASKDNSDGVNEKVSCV

What was measured:
[1] = molecular target: 5-hydroxytryptamine receptor 2A (Homo sapiens) (UniProt P28223)
Homo sapiens = species: Homo sapiens; test: Selectivity ratio of Ke(app) for adrenergic alpha1A receptor (unknown origin) to Ke(app) for human 5-HT2A receptor
Summary of the method: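 Ratio of apparent Ke values from matched FLIPR calcium functional assays at human 5-HT2A and at α1A receptors. Compounds were screened at 10 μM. Ke was taken from the rightward EC50 shift of an 8-point half-log agonist curve (5-HT at 5-HT2A) with one antagonist concentration, Ke = [L]/(DR−1). Values are means of ≥2 triplicate experiments.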

Row | Compound | Ke(app) [1] [nM] | Ratio Ke (Homo sapiens)
1 | COc1cc2c3c(c1OC)-c1cc4c(cc1CC3N(C)CC2)OCO4 (stereo not drawn) | 850 | –
2 | CC#CCOc1c(OC)cc2c3c1-c1cc4c(cc1CC3N(C)CC2)OCO4 (stereo not drawn) | – | 0.2
3 | C/C=C/COc1c(OC)cc2c3c1-c1cc4c(cc1CC3N(C)CC2)OCO4 (stereo not drawn) | – | 2.7
